Assay results as given in publication PMC10781691, “Vertical pathway inhibition of receptor tyrosine kinases and BAD with synergistic efficacy in triple negative breast cancer” (NPJ Precision Oncology, 2024).

Legend:
MDA-MB-231 cells = test: Cambridge cancer compound library screen in combination with NCK; assay type: cell-based, human; settings: compound at IC25 with NCK 0.1, 1, 10 μM, 72 h, AlamarBlue
Procedure: Fig. 5 Tyrosine kinase inhibitors (TKIs) identified as the most synergistic compounds in combination with NCK to reduce MDA-MB-231 cell survival. a Heatmap plot depicts cell viability of MDA-MB-231 cells post-treatment as % Fraction affected (Fa) (Scale: Green to Red). Fa was calculated as 100 - cell viability (%). b Fold change (FC) of cell viability after treatments (compound X versus compound X + 10 μM NCK) and Fa of compound X alone were plotted. Compounds were marked in different colors, each representing the pathway targeted by the compound. Compounds with average CI < 1 when co-treated with NCK are shown. CI was calculated using the bliss independence method (CI= (EA + EB-EAEB)/EAB), where CI < 1 denotes synergy. c Top pathways and targets synergizing with NCK are plotted. d Cell viability of MDA-MB-231 cells after treatment with the highly ranked synergistic TKIs (at their respective IC25) with/without 10 μM NCK (from drug screening assay).
The Cambridge Cancer Compound Library (L2300) was purchased from Selleckchem (Houston, TX, USA) and the detailed information of compounds are listed in Supplementary Fig. 11A. […] After 72-hours of treatment, cell viability was determined with AlamarBlue reagent and fluorescence was measured using a Tecan microplate reader, as previously described. […]

MDA-MB-231 xenografts = test: Orthotopic xenograft, combination study; assay type: in vivo; settings: Balb/c-nude mice, day 22; NCK 20 mg/kg, OSI 50 mg/kg, CRI 50 mg/kg
Procedure: In vivo bioluminescent imaging was performed to determine the incidence and metastatic burden of luciferase-labeled 4T1 cells. Mice were injected i.p. with 10 mg/ml of D-luciferin (Gold Biotechnology, MO, USA) and imaged using a PerkinElmer IVIS Spectrum system. PDX were generated as previously described by transplanting fresh fragments orthotopically into 8-week-old female nonobese diabetic (NOD)/severe combined immunodeficient (SCID) mice (Beijing Vital River Laboratory Animal Technology Co., Beijing, China) (P1, passage 1)[40]. The P1 xenografts were then fragmented, digested into single-cell suspension and implanted into mammary fat pad (100 μL PBS containing growth factor reduced 50% Matrigel) of NOD/SCID mice. […] Animal body weight and xenograft size were measured daily using an electronic balance and a digital caliper, respectively. Xenograft volume (mm^3) was calculated by using the formula: 0.52 × length × [width]^2. Complete response (CR) was achieved if the average xenograft volume for the treatment group was unable to be determined for two or more consecutive measurements. […] IHC analysis of xenograft histology sections and quantitative polymerase chain reaction (qPCR) were performed as previously described. […]

Row | Compound | synergy with NCK in compound library screen (CI, Bliss independence) (MDA-MB-231 cells) | Relative Kidney Weight (MDA-MB-231 xenografts)
1 | C[C@@H](Oc1cc(-c2cnn(C3CCNCC3)c2)cnc1N)c1c(Cl)ccc(F)c1Cl [Crizotinib] | low CI (high synergy) | –
2 | O=C(Nc1ccc(OC(F)(F)F)cc1)c1sccc1NCc1ccnc2ccccc12 [OSI-930] | – | 1.63±0.16%
